# Assay results: US7741286B2, “Long lasting anti-angiogenic peptides” (ConjuChem Biotechnologies Inc., priority 1999, dated 2010)
# Assay: Stability of MPA-K5-HSA conjugate in plasma (HPLC-MS of intact conjugate and albumin forms)
# Assay type: in vitro ADME
# Conditions: 37° in human plasma
# Procedure: MPA-K5 (modified K5 peptide) was incubated with 25% HSA for 2 hours at room temperature. The MPA-K5-HSA conjugate was then incubated at 37° in the presence of human plasma at a final concentration of 160 μm. After the specific incubation period (0, 4 and 24 hours) an aliquot of 100 μl was withdrawn and filtered through a 0.22 μm filter. The presence of intact conjugate was assayed by HPLC-MS.
# The column was an Aquapore RP-300, 250×4.6 mm, 7μ particle size. The column temperature was 50° C. The mobile phase A was 0.1% TFA/water. The mobile phase B was 0.1% TFA/acetonitrile. The injection volume was 1 μl. The gradient was as follows: […]
# The peptide was detected at 214 mm for quantification. For mass spectral analysis of the peptide, the ionization mode was API-electrospray at 1280 to 1500 m/z range, gain 1.0, fragmentor 125V, threshold 100, stepsize 0.40. The gas temperature was 350° C. the drying gas was 13.0 l/min. The pressure was 60 psi and the Vcap was 6000V.
# Approximately 33% of circulating albumin in the bloodstream is mercaptalbumin (SH-albumin) which is not blocked by endogenous sulfhydryl compounds such as cysteine or glutathione and is therefore available for reaction with maleimido groups. The remaining 66% of the circulating albumin is capped or blocked by sulfhydryl compounds. The HPLC MS assay permits the identification of capped-HSA, SH-albumin and K5-MPA-albumin. The MPA covalently bonds to the free thiol on the albumin. The stability of the three forms of albumin in plasma is presented below.
Substance,% SH-Albumin (0 hrs),% SH-Albumin (4 hrs),% SH-Albumin (24 hrs),% capped HSA (0 hrs),% capped HSA (4 hrs),% capped HSA (24 hrs)
"SH-Albumin: mercaptalbumin, not blocked by endogenous sulfhydryl compounds, available for reaction with maleimido groups",16.6%,16.05%,16.8%,,,
capped HSA: circulating albumin capped or blocked by sulfhydryl compounds such as cysteine or glutathione,,,,61.3%,64.6%,63%
